# Test results: ChEMBL document CHEMBL1140667, “Pyrrolidino-tetrahydroisoquinolines bearing pendant heterocycles as potent dual H3 antagonist and serotonin transporter inhibitors” (Bioorg Med Chem Lett, 2007)
# The chains behind the UniProt entries cited, without tags or fusion partners.
# UniProt P31652, whole entry: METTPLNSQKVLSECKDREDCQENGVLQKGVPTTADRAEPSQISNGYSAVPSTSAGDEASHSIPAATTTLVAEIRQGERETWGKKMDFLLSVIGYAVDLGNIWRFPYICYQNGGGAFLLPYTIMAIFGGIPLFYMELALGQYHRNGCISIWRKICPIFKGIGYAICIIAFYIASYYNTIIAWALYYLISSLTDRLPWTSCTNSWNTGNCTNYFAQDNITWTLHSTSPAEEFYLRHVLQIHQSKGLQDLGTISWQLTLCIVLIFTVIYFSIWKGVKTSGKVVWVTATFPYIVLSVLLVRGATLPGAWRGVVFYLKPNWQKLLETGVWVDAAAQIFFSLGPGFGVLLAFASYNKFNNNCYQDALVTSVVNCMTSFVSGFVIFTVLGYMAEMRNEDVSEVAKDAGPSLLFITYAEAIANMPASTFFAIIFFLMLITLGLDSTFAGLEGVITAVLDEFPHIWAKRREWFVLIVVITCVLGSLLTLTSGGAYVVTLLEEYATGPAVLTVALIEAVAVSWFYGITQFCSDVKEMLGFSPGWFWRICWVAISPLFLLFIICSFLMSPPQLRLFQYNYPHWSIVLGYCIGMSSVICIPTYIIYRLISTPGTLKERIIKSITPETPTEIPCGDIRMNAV
# Biological target: Sodium-dependent serotonin transporter (Rattus norvegicus, UniProt P31652)
# Test: Binding affinity to rat SERT
row,Ki [nM],SMILES
1,3.3,c1ccc([C@@H]2CN3CCC[C@@H]3c3cc(OCCCN4CCCCC4)ccc32)nc1
2,20,c1cc([C@@H]2CN3CCC[C@@H]3c3cc(OCCCN4CCCCC4)ccc32)ccn1
